Laboratory results as given in ChEMBL document CHEMBL5543169, “Exploring Subsite Selectivity within Plasmodium vivax N-Myristoyltransferase Using Pyrazole-Derived Inhibitors” (J Med Chem, 2024).

Legend:
[1] = Selectivity index, ratio of IC50 for NMT (unknown origin) to IC50 for Plasmodium vivax NMT
[2] = Selectivity index, ratio of IC50 for human NMT to IC50 for Plasmodium vivax NMT (27 to 410 residues) expressed in Escherichia coli Rosetta 2 (DE3) cells
[3] = Selectivity index, ratio of IC50 for human NMT2 to IC50 for Plasmodium vivax NMT
[4] = Selectivity index, ratio of IC50 for human NMT1 to IC50 for Plasmodium vivax NMT

SMILES: O=C(c1cccc(NCc2cc(-c3ccc(Cl)cc3)c[nH]c2=O)c1)N1CCOCC1
- Ratio IC50 [1]: 37

SMILES: Cc1nn(C)c(C)c1CCOc1cccnc1-c1cccc(N2CCNCC2)c1
- Ratio IC50 [2]: 259

SMILES: Cc1nn(C)c(C)c1CCOc1cc(F)ccc1-c1ccc2c(c1)c(CN(C)C)nn2C
- Ratio IC50 [3]: 3.8
- Ratio IC50 [4]: 2.3
